US20150105317A1

Target: T1, Human macrophage mannose receptor 1 (MRC1) (human) (UniProt P22897)
T1 sequence (looked up): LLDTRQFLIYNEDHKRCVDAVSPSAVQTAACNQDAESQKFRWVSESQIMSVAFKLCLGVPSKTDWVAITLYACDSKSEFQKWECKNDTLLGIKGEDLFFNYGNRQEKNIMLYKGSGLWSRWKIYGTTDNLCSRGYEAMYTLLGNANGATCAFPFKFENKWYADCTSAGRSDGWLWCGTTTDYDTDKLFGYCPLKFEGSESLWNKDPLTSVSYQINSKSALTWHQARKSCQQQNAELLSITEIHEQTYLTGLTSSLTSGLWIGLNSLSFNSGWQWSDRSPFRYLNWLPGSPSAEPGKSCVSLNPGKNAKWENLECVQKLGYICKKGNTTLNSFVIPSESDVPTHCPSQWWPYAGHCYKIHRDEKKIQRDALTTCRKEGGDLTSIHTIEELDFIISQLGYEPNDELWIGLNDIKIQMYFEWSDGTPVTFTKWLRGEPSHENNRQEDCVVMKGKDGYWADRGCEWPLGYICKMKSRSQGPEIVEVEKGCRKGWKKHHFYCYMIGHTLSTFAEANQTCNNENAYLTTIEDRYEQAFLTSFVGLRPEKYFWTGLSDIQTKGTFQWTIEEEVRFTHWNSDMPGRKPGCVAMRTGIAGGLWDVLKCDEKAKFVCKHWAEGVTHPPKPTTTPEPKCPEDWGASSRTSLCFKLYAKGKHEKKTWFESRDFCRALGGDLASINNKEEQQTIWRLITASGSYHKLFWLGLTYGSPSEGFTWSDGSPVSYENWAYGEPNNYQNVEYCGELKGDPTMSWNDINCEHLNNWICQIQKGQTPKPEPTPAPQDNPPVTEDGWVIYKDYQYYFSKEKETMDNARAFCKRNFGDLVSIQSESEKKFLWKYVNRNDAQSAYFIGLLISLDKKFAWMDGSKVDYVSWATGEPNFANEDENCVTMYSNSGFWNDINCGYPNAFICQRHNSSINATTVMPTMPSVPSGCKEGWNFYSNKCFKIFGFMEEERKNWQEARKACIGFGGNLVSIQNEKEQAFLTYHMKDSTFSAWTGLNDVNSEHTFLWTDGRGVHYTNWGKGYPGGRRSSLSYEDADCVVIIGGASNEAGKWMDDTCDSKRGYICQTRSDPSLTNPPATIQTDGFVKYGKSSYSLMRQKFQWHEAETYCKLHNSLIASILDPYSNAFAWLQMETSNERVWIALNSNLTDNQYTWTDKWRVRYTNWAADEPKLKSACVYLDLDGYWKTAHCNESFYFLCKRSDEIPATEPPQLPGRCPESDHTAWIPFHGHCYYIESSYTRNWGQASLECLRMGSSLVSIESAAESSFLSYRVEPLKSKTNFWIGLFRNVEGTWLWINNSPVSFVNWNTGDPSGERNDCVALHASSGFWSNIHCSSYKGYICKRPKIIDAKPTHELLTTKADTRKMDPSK
Experiment: Eu-mannosylated-BSA competition, captured MRC1 (Method F)

IC50: 7.95 nM
Substance: N^εB29-6-((((2-oxo-2-((α-D-mannopyranosyl-(1→3)-[α-D-mannopyranosyl-(1→6)]-α-D-mannopyranosyl)-2-oxyethyl)amino)(2-oxo-2-((α-L-fucopyranosyloxy)-2-oxoethyl)amino)ethyl)amino)acetamido)-6-oxohexanoyl Human Insulin (ligand)
